# How the values were obtained:
# NRXN1α = assay: cell surface binding (SH-SY5Y)
# APLP2 = assay: cell surface binding (SH-SY5Y)
# NRXN3β = assay: cell surface binding (SH-SY5Y)
# NRXN1β = assay: cell surface binding (SH-SY5Y)
# APP = assay: cell surface binding (SH-SY5Y)
# NRXN2β = assay: cell surface binding (SH-SY5Y)
# [1] = molecular target: LAG3 overexpressed in transfected cells (SH-SY5Y; HEK293FT); assay: cell surface binding on transfected SH-SY5Y cells, PFF against α-syn-biotin monomer
# [2] = molecular target: APLP1 expressed in SH-SY5Y cells (FIG. 1B) (UniProt P51693); assay: as above
# [3] = molecular target: Neurexin1β expressed in SH-SY5Y cells (FIG. 1B); assay: as above
# [4] = molecular target: APLP1 expressed in SH-SY5Y cells (FIG. 1B) (UniProt P51693); assay: cell surface binding (SH-SY5Y)
# [5] = molecular target: CD4 expressed in SH-SY5Y cells; assay: cell surface binding (SH-SY5Y)
# LAG3-/- = assay: cell surface binding (cortical neurons); LAG3-/- cortical neurons
# WT = assay: cell surface binding (cortical neurons); WT cortical neurons
# [6] = molecular target: human recombinant LAG3 (human) (UniProt P18627); assay: ELISA, human LAG3 captured on an anti-LAG3 coated plate, HRP-streptavidin detection (legends: human α-syn PFF)
Kd (NRXN1α) [nM],Kd (APLP2) [nM],Kd (NRXN3β) [nM],Kd (NRXN1β) [nM],Kd (APP) [nM],Kd (NRXN2β) [nM],Substance,Kd [4] [nM],Kd [5] [nM],also measured
> 3000,> 3000,> 3000,> 3000,> 3000,> 3000,α-SYN (from UniProt O55042 1-140),,,
,,,,,,α-syn-biotin PFF (biotin-labelled α-synuclein pre-formed fibrils) (from UniProt O55042 1-140),401,> 3000,selectivity (Kd monomer divided by Kd PFF) [1]: 38; selectivity (Kd monomer divided by Kd PFF) [2]: 7; selectivity (Kd monomer divided by Kd PFF) [3]: 11
,,,,,,α-syn-biotin monomer (from UniProt O55042 1-140),> 3000,> 3000,
,,,,,,α-SYN-BIOTIN (from UniProt O55042 1-140),,,Kd (LAG3-/-): 449 nM; Kd (WT): 374 nM
,,,,,,Human α-syn PFF (from UniProt P37840 1-140) (other; other documents disagree on this pair),,,Kd [6]: 2.7 nM
933,> 3000,340,260,> 3000,630,α-SYN PFF (from UniProt O55042 1-140),,,

# Source: US20190194324A1
